According to patent publication EP1142883A1, “NOVEL HETEROCYCLIC COMPOUNDS AND DRUG COMPOSITIONS CONTAINING THE SAME” (Asahi Kasei Kabushiki Kaisha, priority 1998, dated 2000):

System: Caco-2 cell
Assay: Permeability through human small intestine epithelium (Caco-2 cell layer)
Settings: Caco-2 layer, cup side pH 6.5, base side pH 7.4, drug 20-40 µM, 37°C
Source text: Human colon adenocarcinoma, Caco-2 cell, when cultured, spontaneously differenciates to form a cell layer consisting of a polar single layer having microvillus similar to small intestine epithelial cell. The presence of tight junction has been found out in the membrane formed. Therefore, the above cell layer can be used as a model system of human small intestine epithelium and is recognized as the simplest system to evaluate the permeability through a membrane of a drug orally administered to human. The specific experimental method is as follows.
Before the cells reached confluence, DMEM was removed and the flask was washed with PBS (phosphate buffered saline, pH 7.2, Ca, Mg free (Gibco BRL)) and treated with trypsin/EDTA to peel off the cells, which were then harvested. […]
DMEMs in the cup side and base side of Transwell were removed and then replaced with a buffer for the permeation experiment (HBSS (Hanks Balanced Salt Solution, Gibco BRL), 10 mM Mes, pH 6.5 (mfd. by DOJINDO) or 10 mM Hepes, pH 7.4 (mfd. by DOJINDO) containing 25 mM glucose and 0.05% Tween 80). […] With additionally incubating at 37°C, 80 µL aliquot of the base side buffer was sampled with the passage of time to quantitate the amount of the drug permeated into the base side buffer. […]
In this connection, the quantitation of the drug was carried out with LC/MS or HPLC (detecting with fluorescence). […]

(R)-[[6-[2-[2-(9H-carbazol-2-yloxy)ethylamino]-1-hydroxyethyl]-(2,3-dihydro-1,4-benzoxazin)-4-yl]sulfonyl]dimethylamine [Example 6]
Permeability Coefficient Papp × 10^-6 (cm/s): 0.58 × 10^-6 cm/s
